# Compound activity from PubChem.
# An excerpt weighted towards active compounds, which were near 2.1% of everything screened.
# GSIS activator: primary screen for activators of insulin secretion dependent on glucose, INS-1E cells, GLuc reporter luminescence; activation, % at 16.6 µM; 370,000 tested, 0.61% active; INS-1E GLuc reporter insulin secretion, 2-3 h;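 active means lowest replicate activation of at least 40%, so every replicate reaches that level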;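 further: 0% = median of neutral control wells and 100% = median of IBMX positive control wells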
# NR1D1 modulator: modulates human Rev-erb alpha binding to DNA; 370,000 tested, 0.79% active; P20393; activity, % at 10 µM; Rev-erbα–FITC-DNA binding, fluorescence polarization, 90 min;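 active means activity above about 14%, limit read from the data; passing the limit was not always enough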;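 further: 0% = DMSO wells with 35 nM protein and 100% = DMSO wells with 750 nM protein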
# PDI turbidity: PDI (human) enzyme inhibition; P07237; PDI insulin aggregation turbidity, A650, 90 min; 350,000 tested, 0.052% active; inhibition, % at 10 µM; AID 588391;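 active means mean inhibition across replicates of 30% or more, whatever share of single replicates reach that level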
# ERp5 block: blocks human ERp5 reductase activity on insulin. 350,000 tested, 0.05% active. Q15084. ERp5 insulin aggregation, absorbance 650 nm, 90 min. inhibition, % at 9.99 µM;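 active means mean replicate inhibition above about 25%, with every replicate also reaching it, limit read from the data, passing the limit was not always enough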
# UUG fidelity: modulators of yeast start codon fidelity, primary screen, whole organism, S. cerevisiae, single point, plate reader | AID 602363, 2012 | actives 0.13% (n = 350,000) | activity score, % at 18.7 µM | S. cerevisiae UUG-firefly luciferase reporter, luminescence/redox ratio;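 active means replicate mean at a twofold rise or more, about +100% in these data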;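 further: firefly luciferase made from a UUG start codon reports start codon fidelity; reporter light over untreated wells divided by growth signal over untreated wells; some hits fall short of that in this replicate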
# SMARCA2 activ: increases SMARCA2 function in MMTV reporter cells | 370,000 tested, 1% active | AID 652017 | activation, % at 9.1 µM | MG213 cells, MMTV-luciferase reporter, dexamethasone, overnight; in the data active means activation above about 7.8%;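 further: 0% = vehicle wells and 100% = reference activator wells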
# * hit, by the source's call; nt = not tested or not shown.
# The line under a structure holds: UUG fidelity	NR1D1 modulator	ERp5 block	SMARCA2 activ	PDI turbidity	GSIS activator
Cc1ccc(-c2ccc(C3[C@@H]4CN(Cc5ccccc5)C[C@H]3N4)cc2)cc1 (stereo partly drawn)
    nt	nt	nt	nt	nt	-3
CCC(=O)N1CCC2(CC1)CN(C(=O)c1ccccn1)[C@@H](CO)c1c2c2ccc(OC)cc2n1C
    nt	nt	nt	nt	nt	9
O=C(C[C@H]1CC[C@@H]2[C@H](COC[C@@H](O)CN2C(=O)Nc2ccc(Cl)cc2)O1)NCC1CC1
    nt	nt	0	nt	nt	-26
C[C@@H]1CN([C@@H](C)CO)C(=O)c2cc(NC(=O)c3ccccc3)ccc2O[C@@H](C)CCCCO[C@H]1CN(C)C(=O)Nc1ccccc1
    2	nt	-6	nt	nt	-15
CCOC(=O)c1c(-c2ccc(C)o2)csc1NC(=O)CSc1nnc(C)s1
    -19	-1	nt	-3	-1	nt
CCOC(=O)c1c(-c2ccc(C)o2)csc1NC(=O)COC(=O)c1ccc(NC(N)=O)cc1
    -13	4	nt	-2	-4	50*
COc1ccc2c(c1OC)C(=O)N1c3ccccc3SC21 (stereo not drawn)
    -4	-3	nt	5	-4	115*
COc1ccccc1C(=O)Nc1c2c(nn1-c1cccc(C)c1C)CS(=O)(=O)C2
    -2	22	nt	-1	0	59*
Cc1ccccc1-n1nc2c(c1NC(=O)c1cc3ccccc3oc1=O)CS(=O)(=O)C2
    nt	-1	nt	-1	nt	54*
COc1ccccc1C(=O)Nc1c2c(nn1-c1ccc(Cl)cc1)CS(=O)(=O)C2
    -11	-8	13	3	5	2
CCN(CC)S(=O)(=O)c1cc(NC(=O)c2ccc(-n3cncn3)c([N+](=O)[O-])c2)ccc1C
    -3	-2	25*	-4	-5	-23
CN(C)C(=O)C[C@H]1C[C@H]2c3cc(NS(C)(=O)=O)ccc3O[C@H]2[C@@H](CO)O1
    -6	nt	33*	nt	nt	10
CN(C)C(=O)C[C@H]1C[C@@H]2c3cc(NS(C)(=O)=O)ccc3O[C@@H]2[C@@H](CO)O1
    -6	nt	-1	nt	nt	17
CN(C)C(=O)C[C@H]1C[C@H]2c3cc(NS(C)(=O)=O)ccc3O[C@H]2[C@H](CO)O1
    -13	nt	68*	nt	nt	4
CN(C)C(=O)C[C@H]1C[C@@H]2c3cc(NS(C)(=O)=O)ccc3O[C@@H]2[C@H](CO)O1
    -6	nt	15	nt	nt	0
COc1cccc(S(=O)(=O)Nc2ccc3c(c2)[C@H]2C[C@@H](CC(=O)O)O[C@H](CO)[C@H]2O3)c1
    37*	nt	3	nt	nt	13
C[C@@H]1CN(C)C(=O)c2cccc(NS(C)(=O)=O)c2O[C@H]1CN(C)C
    nt	nt	nt	nt	nt	10
COc1cc2c(cc1OC)CN(C(=O)[C@@H]1[C@H]3C(=O)O[C@H](c4ccccc4)[C@H](c4ccccc4)N3[C@H](c3ccc(OCCO)cc3)[C@@]13C(=O)Nc1ccc(C#CCNC(N)=O)cc13)CC2
    3	nt	3	nt	nt	nt
CCOc1ccc2ccc(OCC)c(/C=N/n3cnnc3)c2c1
    -11	3	4	0	-3	40*
CCOc1cc(/C=N/n2cnnc2)ccc1O
    -17	0	-9	-1	5	34
C[C@H]1CN([C@@H](C)CO)C(=O)c2cccc(NS(=O)(=O)c3ccc(Cl)cc3)c2O[C@@H]1CN(C)C(=O)Nc1cccc2ccccc12
    -7	nt	-7	nt	nt	-6
CCCNC(=O)[C@@H]1[C@@H](CO)[C@@H]2Cn3c(ccc(-c4ccccc4OC)c3=O)[C@@H]2N1S(C)(=O)=O
    nt	nt	-9	nt	nt	8
COc1ccc(-c2csc3ncnc(Sc4nnnn4C)c23)cc1
    -6	-2	4	1	3	12
CC(=O)c1cccc(-c2csc3ncnc(Sc4nnnn4C)c23)c1
    -23	-4	5	-8	-4	42*
Cn1nnnc1Sc1ncnc2scc(-c3ccc(Cl)cc3)c12
    -2	-1	0	-3	-5	70*
O=c1c2ccc(F)cc2sn1-c1ccccc1
    -25	-1	-3	4	-1	128*
O=c1c2ccccc2sn1-c1ccc(Cl)cc1
    -19	4	2	-1	0	8
Cc1ccc(-n2sc3cc(F)ccc3c2=O)c(C)c1
    -28	-3	5	-3	1	207*
Cc1ccc(N2C(=O)CC(N3CCN(c4ccc(F)cc4)CC3)C2=O)c(C)c1 (stereo not drawn)
    -18	-5	-2	-3	3	-14
O=c1c2ccccc2sn1-c1ccc(F)cc1
    -26	-12	5	7	1	145*
CN1C(=O)C2C3c4ccccc4C(c4ccccc43)[C@@H]2C1=O (stereo partly drawn)
    -16	-6	2	2	-4	71*
C[C@@H]1CN([C@H](C)CO)C(=O)c2c(c3ccccc3n2C)-c2ccccc2CO[C@@H]1CN(C)C(=O)c1cc(Cl)cc(Cl)c1
    nt	nt	7	nt	nt	-6
C/C(=N/NC(=O)c1ccc(Br)o1)c1ccncc1
    -14	-3	nt	3	-1	67*
C/C(=N/NC(=O)c1cnccn1)c1ccncc1
    -21	-4	1	-1	2	18
COc1cccc(CNC(=O)C[C@@H]2CC[C@@H](NC(=O)C3CCOCC3)[C@H](CO)O2)c1
    -2	nt	-3	nt	nt	3
CCOC(=O)c1c(-c2ccc(-c3ccccc3)cc2)csc1NC(=O)CNCCN(C)C
    -23	3	2	6	0	180*
COc1ccc(NC(=O)CSc2ccc(-c3sc(C)nc3C)nn2)cc1OC
    -3	-1	1	2	0	15
Cc1nc(C)c(-c2ccc(SCC(=O)Nc3ccc(C)c(Cl)c3)nn2)s1
    -2	11	0	-2	-3	41*
CNC[C@H]1Oc2c(NC(=O)c3cc(C)nn3C)cccc2C(=O)N([C@@H](C)CO)C[C@H]1C
    -7	nt	-3	nt	nt	2
Cc1ccc(NC(=O)c2ccccc2-c2ccccc2C(=O)O)cc1C
    nt	-2	-1	-5	-2	45*
Cc1ccc(NC(=O)c2ccccc2-c2ccccc2C(=O)O)cc1
    nt	-1	2	1	3	16
CC(=O)Nc1cccc(-n2c(=O)n(Cc3ccccc3)c(=O)c3[nH]cnc32)c1
    -9	0	-4	2	-4	43*
COc1ccc(Cn2c(=O)c3[nH]cnc3n(-c3ccccc3C)c2=O)cc1
    nt	2	3	2	-5	64*
COc1ccc(C)c(-n2c(=O)n(Cc3ccccc3)c(=O)c3[nH]cnc32)c1
    -18	1	-3	-1	-2	63*
COc1cccc(-n2c(=O)n(Cc3ccccc3)c(=O)c3[nH]cnc32)c1C
    -15	-3	1	-2	10	76*
CN(C)C(=O)C[C@H]1CC[C@H]2[C@H](COc3ccc(NC(=O)Nc4cccc(Cl)c4)cc3C(=O)N2C)O1
    11	nt	-6	nt	nt	-10
C/C=C/c1ccc([C@H]2[C@@H](CNS(C)(=O)=O)N(CC3CC3)[C@H]2CO)cc1
    -8	nt	7	nt	nt	8

# Single records, from the list above. Values in the order: UUG fidelity | NR1D1 modulator | ERp5 block | SMARCA2 activ | PDI turbidity | GSIS activator
# COc1ccc(Cn2c(=O)c3[nH]cnc3n(-c3ccccc3C)c2=O)cc1 in the list: nt | 2 | 3 | 2 | -5 | 64*
# COc1cccc(S(=O)(=O)Nc2ccc3c(c2)[C@H]2C[C@@H](CC(=O)O)O[C@H](CO)[C@H]2O3)c1 in the list: 37* | nt | 3 | nt | nt | 13
# CCOC(=O)c1c(-c2ccc(C)o2)csc1NC(=O)COC(=O)c1ccc(NC(N)=O)cc1 in the list: -13 | 4 | nt | -2 | -4 | 50*
# CN(C)C(=O)C[C@H]1CC[C@H]2[C@H](COc3ccc(NC(=O)Nc4cccc(Cl)c4)cc3C(=O)N2C)O1 in the list: 11 | nt | -6 | nt | nt | -10
# C/C=C/c1ccc([C@H]2[C@@H](CNS(C)(=O)=O)N(CC3CC3)[C@H]2CO)cc1 in the list: -8 | nt | 7 | nt | nt | 8
